# Binding of CDR-mutated scFvs to a peptide of the spike HR2 region

Data: MIT Lincoln Laboratory AlphaSeq set, Li et al. 2023, doi:10.1038/s41467-023-39022-2, as distributed in FLAb.

Binding partner: SARS-CoV-2 spike HR2 peptide, sequence PDVDLGDISGINAS.

Parent: Ab-14, a human scFv built as VH, three GGGGS repeats, VL. Only the CDRs of the heavy chain vary.
VH: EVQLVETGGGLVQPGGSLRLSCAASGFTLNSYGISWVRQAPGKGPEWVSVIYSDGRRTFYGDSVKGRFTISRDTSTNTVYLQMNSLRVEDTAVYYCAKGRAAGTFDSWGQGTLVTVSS
VL: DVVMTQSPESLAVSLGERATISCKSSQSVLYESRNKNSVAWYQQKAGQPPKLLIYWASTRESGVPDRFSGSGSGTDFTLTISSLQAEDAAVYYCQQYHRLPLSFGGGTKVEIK

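This is the validation round: designs drawn from the data on random variants, tested in the same kind of assay. Their group label is 14H_En_Gibbs (En: ensemble of fine-tuned language models; Gibbs: Gibbs sampling). Affinity was read by AlphaSeq, a pooled yeast mating assay with surface-displayed partners. Mating (16 h, 30 °C) was followed by selection of diploids and sequencing of their barcodes. Scores were corrected for input abundance and mapped to Kd with protein pairs of known affinity run in the same pool. The assay was run in six technical replicates.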

Each variant is given by its three heavy chain CDRs, as the data file delimits them; those of the parent are GFTLNSYGIS, VIYSDGRRTFYGDSVK, GRAAGTFDS.
Values are log10 of the apparent Kd in nM; lower means stronger binding.
Replicates are averaged; those with no signal do not enter the mean.
"ND" marks a missing value. The strain was present, yet no cells mated with the target were sequenced in that replicate, which points to weak or no binding.
The authors' rule: three or more of the six replicates give a measured affinity, fewer mean a poor binder.

CDR-H1 | CDR-H2 | CDR-H3 | log10 Kd, replicates | mean log10 Kd (nM) | control signals
GADLNEYGIS | VIYADGDRKAFQNDVK | GTNAGDFDI | ND / ND / ND / ND / ND / ND | ND | 0 of 18
GFSIDEYGIS | VIYADGVRQAYQDDVK | GQIGGFFNY | ND / 2.02 / ND / ND / 1.95 / ND | 1.98 | 0 of 18
GFDLQEYGVS | VIYADGERKAYADKVK | GTHGGTRDI | ND / ND / ND / ND / ND / ND | ND | 0 of 18
GEDLLEYGIS | VIYADGIRVMYTNQVK | GNVAGFFTL | ND / ND / ND / ND / ND / ND | ND | 0 of 18
GFKIDEYGIS | VIYADGIRRQYADNVK | GYTDDAFDM | ND / ND / ND / 3.04 / ND / ND | 3.04 | 4 of 18 (3.01)
GFSLDEMGIS | VIYADGQRTFYQASVK | GQNIGNVFV | ND / ND / ND / ND / ND / ND | ND | 0 of 18
GNELDEYGIS | VIYADGKRTAYSDAVK | DVGSNTLVD | ND / ND / ND / ND / ND / ND | ND | 1 of 18 (1.94)
GFDLNEYGIS | VIYADGIRTAYSDQVK | WRDGIVILF | ND / ND / ND / ND / ND / ND | ND | 0 of 18
GFDLEEYGVS | VIYADGQRAFYTDSVK | GKGAGIALI | ND / ND / ND / ND / ND / ND | ND | 0 of 18
GADLNEYGIS | VIYADGSRTEYADTVK | GTHGGMFDS | ND / 1.80 / ND / ND / ND / ND | 1.80 | 0 of 18
GKNLDEYGIS | VIYADGQRTAYSKNVK | GTFDVKRVD | 1.66 / 0.71 / 1.14 / 0.86 / 0.63 / 1.08 | 1.01 | 0 of 18
GFEIQEYGIS | VIYADGRRTAYAENVK | GTMGGTFST | 1.23 / 0.71 / 1.05 / 0.71 / 0.41 / 0.44 | 0.76 | 0 of 18
GFKLDEYGIS | VIYADGHRVAVSDKVK | GHNVGAFFV | ND / ND / ND / 1.63 / ND / ND | 1.63 | 0 of 18
GFDLQEYGIS | VIYADGVRMAYTDSVK | GNWSGRDML | ND / ND / ND / ND / ND / ND | ND | 0 of 18
GFDLDEYGIS | VIYADGMRVSYDQNVK | GRGGVSFVF | ND / ND / ND / ND / ND / ND | ND | 0 of 18
GEDLMEYGIS | VIYADGRRFSYIDDVK | GNSTGFLDV | ND / ND / ND / ND / ND / ND | ND | 0 of 18
GFNLEEYGIS | VIYADGVRAAYAENVK | AGGNVIAIG | ND / ND / ND / ND / ND / ND | ND | 1 of 18 (2.23)
GFNLDEYGIS | VIYADGTRRYYADSVK | GDYVYVNST | ND / ND / ND / ND / ND / ND | ND | 0 of 18
GFHLDEFGIS | VIYADGSRSSYADDVK | GEGVNGFVV | ND / ND / ND / ND / ND / ND | ND | 1 of 18 (1.89)
GFDINEYGIS | VIYADGRRVYYADDVK | GKNLENFSF | ND / ND / ND / ND / ND / ND | ND | 0 of 18
GFQIEEYGIS | VIYADGDRMSYDNKVK | GQISGQFDM | ND / ND / ND / ND / ND / ND | ND | 0 of 18
GFQLDEYGIS | VIYADGLRTVYKDTVK | GSDTGLFMI | ND / ND / ND / ND / ND / ND | ND | 0 of 18
GKSLNEFGIS | VIYADGVRRAYADDVK | GNAAGHFIS | ND / ND / ND / ND / ND / ND | ND | 0 of 18
GQDLNEYGIS | VIYADGKRVAYEDSVK | GKSKGLVFV | ND / ND / ND / ND / ND / ND | ND | 0 of 18
SFSLDDYGIS | VIYADGLRKAYVDEVK | GYVAGTFDE | -0.01 / -0.16 / 0.31 / 0.04 / -0.12 / -0.17 | -0.02 | 0 of 18
GFKLDEQGIS | VIYADGRRVGYTDSVK | GTNGINFTL | ND / ND / ND / ND / ND / ND | ND | 0 of 18
GFDIEEYGIS | VIYADGMRSSYSQSVK | GEYSGNIYV | ND / ND / ND / 1.04 / ND / 2.24 | 1.64 | 1 of 18 (1.14)
GADLNEYGIS | VIYADGDRKAYQDDVK | GTVGGDFDE | ND / ND / ND / ND / ND / ND | ND | 0 of 18
GQDINEFGIS | VIYADGIRNQYADSFK | GQNGFFFDI | ND / ND / ND / ND / ND / ND | ND | 0 of 18
GKNIDEYGVS | VIYADGKRTAYANNFK | GSNAGSFKS | ND / ND / ND / ND / ND / ND | ND | 0 of 18
GFDLEEQGVS | VIYADGKRAQYSDNVK | GYQTGFIDV | ND / ND / 2.24 / ND / ND / ND | 2.24 | 0 of 18
GFELNEYGIS | VIYADGMKQAYRDAVK | GGIAGNFMQ | 0.82 / 1.23 / 0.78 / 0.55 / 0.30 / 1.43 | 0.85 | 0 of 18
GFDLDEMGIS | VIYADGQRAAYQGSVK | GTNNGNFNE | ND / 1.55 / ND / ND / ND / ND | 1.55 | 1 of 18 (1.36)
GFNLDEYGIS | VIYADGMRTVFADNVK | GQNVGFTVF | ND / ND / ND / ND / ND / ND | ND | 0 of 18
GEDLDEYGIS | VIYADGRRVVYQDQVK | GELSGNFAQ | 0.24 / -0.15 / 0.21 / 0.10 / 0.05 / 0.59 | 0.17 | 0 of 18
GSSLDEYGIS | VIYADGQRVQYADTVK | GIQGVNVDV | ND / ND / ND / ND / ND / ND | ND | 0 of 18
GFSLDEYGIS | VIYADGLRSFYQDQVK | GQLALSLDT | ND / ND / ND / ND / ND / ND | ND | 0 of 18
EFDLNNYGIS | VIYADGLRTAYETSFK | GDNAGTFVS | ND / ND / ND / ND / ND / ND | ND | 1 of 18 (1.66)
GFALNEYGIS | VIYADGSRSAYTDSVK | GVHNGDVNI | ND / ND / ND / ND / ND / ND | ND | 0 of 18
GMNLDEYGIS | VIYADGSRVFYVQDVK | GTVDTVGDV | ND / ND / ND / ND / ND / ND | ND | 1 of 18 (1.89)
GNTLNEYGIS | VIYADGIRKQYSDNVK | GMNADTFDQ | ND / ND / ND / ND / ND / ND | ND | 0 of 18
GDSLNEYGIS | VIYADGVRARYADAVK | GENDGLFDQ | ND / ND / ND / ND / ND / ND | ND | 0 of 18
GFNLDEYGIS | VIYADGKRTEYSKNVK | GQIDFKLIG | ND / ND / ND / ND / ND / ND | ND | 0 of 18
GENIEEYGIS | VIYADGRRTAYAEPVK | GVSGGTIDT | 2.18 / ND / ND / ND / ND / ND | 2.18 | 0 of 18
GQSLEEYGIS | VIYADGKRTQYKNSVK | GTNADDITV | ND / ND / ND / ND / ND / ND | ND | 0 of 18

Picked from the list: the 4 lowest averages where every replicate gave a value.

CDR-H1 | CDR-H2 | CDR-H3 | log10 Kd, replicates | mean log10 Kd (nM) | control signals
SFSLDDYGIS | VIYADGLRKAYVDEVK | GYVAGTFDE | -0.01 / -0.16 / 0.31 / 0.04 / -0.12 / -0.17 | -0.02 | 0 of 18
GEDLDEYGIS | VIYADGRRVVYQDQVK | GELSGNFAQ | 0.24 / -0.15 / 0.21 / 0.10 / 0.05 / 0.59 | 0.17 | 0 of 18
GFEIQEYGIS | VIYADGRRTAYAENVK | GTMGGTFST | 1.23 / 0.71 / 1.05 / 0.71 / 0.41 / 0.44 | 0.76 | 0 of 18
GFELNEYGIS | VIYADGMKQAYRDAVK | GGIAGNFMQ | 0.82 / 1.23 / 0.78 / 0.55 / 0.30 / 1.43 | 0.85 | 0 of 18

A sequence measured in both rounds can read differently, since the two assays cover different ranges.
Background: pairings of all heavy chain designs with three empty control strains gave a value in 1% of cases (median 2.08, 5th percentile 0.84). Values in that range, when seen in few replicates, are hard to tell from nonspecific mating. The control count says in how many pairings with the empty strains this scFv gave a signal, with their mean in brackets.